Measured values as given in patent publication US8618144B2, “Pyrrolidine-derived beta 3 adrenergic receptor agonists” (Merck Sharp & Dohme Corp, priority 2009, dated 2013).

Chains of the proteins cited; added tags and fusions are not shown.
UniProt P13945, whole entry: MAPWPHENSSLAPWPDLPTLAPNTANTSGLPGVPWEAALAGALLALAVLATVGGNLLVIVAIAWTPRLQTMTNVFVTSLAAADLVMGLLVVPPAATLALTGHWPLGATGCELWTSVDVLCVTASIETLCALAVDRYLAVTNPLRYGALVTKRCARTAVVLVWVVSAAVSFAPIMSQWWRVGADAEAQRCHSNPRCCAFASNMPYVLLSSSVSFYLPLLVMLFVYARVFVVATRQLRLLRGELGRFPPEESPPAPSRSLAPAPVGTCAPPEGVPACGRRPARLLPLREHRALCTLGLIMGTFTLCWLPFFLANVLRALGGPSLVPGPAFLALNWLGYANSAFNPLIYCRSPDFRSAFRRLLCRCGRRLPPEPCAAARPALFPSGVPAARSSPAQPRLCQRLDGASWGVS

Target: human β3 adrenergic receptor (Homo sapiens, UniProt P13945)
Experiment: Functional Assay: cAMP production in CHO cells stably transfected with cloned β3-adrenergic receptor (LANCE)
Conditions: read-out: Human β3 EC50, CHO cells expressing β3 receptor, range classes, tested form: trifluoroacetate
Method: Functional Assay: cAMP production in response to ligand is measured according to Barton et al (1991, Agonist-induced desensitization of D2 dopamine receptors in human Y-79 retinoblastoma cells. Mol. Pharmacol. […]) modified as follows. cAMP production is measured using a homogenous time-resolved fluorescence resonance energy transfer immunoassay (LANCE™, Perkin Elmer) according to the manufacture's instructions. Chinese hamster ovary (CHO) cells, stably transfected with the cloned β-adrenergic receptor (β1, β2 or β3) are harvested after 3 days of subculturing. Harvesting of cells is done with Enzyme-free Dissociation Media (Specialty Media). Cells are then counted and resuspended in assay buffer (Hank's Balanced salt solution supplemented with 5 mM HEPES, 0.1% BSA) containing a phosphodiesterase inhibitor (IBMX, 0.6 mM). […] The assay plate is then incubated for 1 hour at room temperature and time-resolved fluorescence measured on a Perkin Elmer Envision reader or equivalent. The unknown cAMP level is determined by comparing fluorescence levels to a cAMP standard curve.
The non-selective, full agonist β-adrenergic ligand isoproterenol is used at all three receptors to determine maximal stimulation. […] Data are analyzed using Microsoft Excel and Graphpad Prism or an internally developed data analysis software package.

| SMILES | EC50 |
| --- | --- |
| O=C(Cn1cc2ccccc2n1)Nc1ccc(C[C@@H]2CC[C@H]([C@H](O)COc3ccccc3)N2)cc1 | 1 to 10 nM |
| Cc1nn(CC(=O)Nc2ccc(C[C@@H]3CC[C@H]([C@H](O)COc4ccccc4)N3)cc2)c(=O)c2ccccc12 | < 1 nM |
